# Laboratory results published in patent publication US5512549A, “Glucagon-like insulinotropic peptide analogs, compositions, and methods of use” (Eli Lilly and Company, priority 1994, dated 1996).
# Target: T1, rat GLP-1 receptor (Rattus norvegicus, UniProt P32301)
# T1 construct: expressed in transfected cells; host or cells: CHO DXB-11 (Chinese hamster ovary) cells, used as a membrane preparation
# T1 sequence (P32301 22-463): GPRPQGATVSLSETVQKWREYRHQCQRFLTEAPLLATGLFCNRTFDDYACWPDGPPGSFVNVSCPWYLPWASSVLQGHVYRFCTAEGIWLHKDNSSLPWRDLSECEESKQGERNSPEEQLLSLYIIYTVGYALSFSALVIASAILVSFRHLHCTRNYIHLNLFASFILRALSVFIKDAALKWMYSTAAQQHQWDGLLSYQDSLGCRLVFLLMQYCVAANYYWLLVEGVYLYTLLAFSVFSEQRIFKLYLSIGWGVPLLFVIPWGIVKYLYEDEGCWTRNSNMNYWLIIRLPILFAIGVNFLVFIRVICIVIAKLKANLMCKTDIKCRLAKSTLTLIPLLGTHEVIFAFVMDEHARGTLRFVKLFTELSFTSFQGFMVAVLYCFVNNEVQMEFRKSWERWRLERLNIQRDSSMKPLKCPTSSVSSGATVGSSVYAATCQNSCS
# Assay: cAMP Assay (in vitro receptor binding assay) on membrane preparation
# Format: biochemical
# Settings: cAMP production, CHO membranes expressing rat GLP-1 receptor; mean ± spread
substance,measurement,value
GLP-1(7-37)OH,% Relative Potency,100.0 ± 18%
